Values of other authors, collected in patent US20020165208A1, “Compositions and methods relating to hypertension” (priority 2000, published 2002).

Test system: SHR rats
Settings: castrated male SHR rats, TST replacement; cited from earlier work

C[C@]12CC[C@H]3[C@@H](CCC4=CC(=O)CC[C@@]43C)[C@@H]1CC[C@@H]2O [TST, testosterone]
Effect on normotensive effects of castration: reversed by TST replacement
